This assay has as its target EGFR-ECD (UniProt P00533). Description: BLI. The following applies: bispecific antibody.

The term Kd denotes the free concentration of one partner at which half of the binding sites on the other are occupied at equilibrium, for simple one-to-one binding.

As to “bispecific hdFEB4-1-4×hNKE14-8 (from UniProt P01857)”, the Kd was 21 nM.

(Values after publication PMC8141644.)
